Molecular target: PARP1 (Homo sapiens, UniProt P09874)
Experiment: PARP1 trapping in HeLa cells (subcellular fractionation, chromatin-bound fraction)
Format: cell-based
Design: host or cells: HeLa
Details: 5 μM for all compounds, MMS 0.01%
Experimental: Subcellular Proteins Extraction. […] The cytosolic proteins were isolated by incubating the cells with the CEB buffer for 10 min at 4° C., and centrifuged at 500 g for 5 min. The membrane proteins were isolated by incubating the pellet from previous step with the MEB buffer for 10 min at 4° C., and centrifuged at 3000 g for 5 min. The soluble nuclear proteins were isolated by incubating the pellet from previous step with the NEB buffer for 30 min at 4° C., and centrifuged at 5000 g for 5 min. The chromatin bound proteins were isolated by incubating the pellet from previous step with the NEB buffer supplemented with nuclease for 15 min at RT and centrifuged at 16000 g for 5 min. Protein concentrations were determined by the BCA assay kit.

Amino acid sequences for entries named in this document (tags omitted).
UniProt P09874, whole entry: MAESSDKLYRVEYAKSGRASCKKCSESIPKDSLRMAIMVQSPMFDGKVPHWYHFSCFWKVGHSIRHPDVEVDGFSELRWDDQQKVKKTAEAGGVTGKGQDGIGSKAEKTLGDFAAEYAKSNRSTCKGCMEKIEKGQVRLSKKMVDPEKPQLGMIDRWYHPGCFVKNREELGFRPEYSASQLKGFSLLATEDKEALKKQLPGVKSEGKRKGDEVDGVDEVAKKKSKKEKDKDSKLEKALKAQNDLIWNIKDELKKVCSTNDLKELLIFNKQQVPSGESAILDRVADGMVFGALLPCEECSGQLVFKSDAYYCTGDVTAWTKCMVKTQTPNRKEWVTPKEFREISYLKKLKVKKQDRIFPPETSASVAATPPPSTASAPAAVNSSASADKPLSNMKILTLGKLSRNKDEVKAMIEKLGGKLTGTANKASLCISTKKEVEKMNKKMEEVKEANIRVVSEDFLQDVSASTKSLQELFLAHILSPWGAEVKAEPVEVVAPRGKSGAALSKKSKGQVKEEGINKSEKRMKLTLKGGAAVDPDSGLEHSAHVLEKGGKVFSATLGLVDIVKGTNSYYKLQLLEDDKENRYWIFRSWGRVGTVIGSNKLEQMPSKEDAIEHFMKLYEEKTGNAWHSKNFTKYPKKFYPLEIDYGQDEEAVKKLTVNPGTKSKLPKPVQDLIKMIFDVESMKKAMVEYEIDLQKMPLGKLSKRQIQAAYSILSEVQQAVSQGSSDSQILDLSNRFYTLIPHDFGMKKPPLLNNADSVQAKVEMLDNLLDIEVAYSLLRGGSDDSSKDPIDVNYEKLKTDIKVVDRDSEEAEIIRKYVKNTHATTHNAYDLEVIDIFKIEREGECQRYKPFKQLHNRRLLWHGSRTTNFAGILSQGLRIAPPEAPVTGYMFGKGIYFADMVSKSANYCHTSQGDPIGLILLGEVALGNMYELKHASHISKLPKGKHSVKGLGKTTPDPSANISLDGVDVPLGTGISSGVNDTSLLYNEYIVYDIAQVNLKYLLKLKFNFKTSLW

Compound: Cn1ncnc1[C@H]1c2n[nH]c(=O)c3cc(F)cc(c23)N[C@@H]1c1ccc(F)cc1 [BMN673]
- potency in PARP1 trapping (rank order): BMN673>Niraparib>Olaparib>Rucaparib>Veliparib

Source: US20220098196A1, “TRAPPING-FREE PARP INHIBITORS” (The Board of Regents of the University of Texas System, priority 2019, published 2022)
